Amino acid sequences for entries named in this document (tags omitted). A change or cut given only in a name is not applied to a line headed by its entry.
UniProt P21729: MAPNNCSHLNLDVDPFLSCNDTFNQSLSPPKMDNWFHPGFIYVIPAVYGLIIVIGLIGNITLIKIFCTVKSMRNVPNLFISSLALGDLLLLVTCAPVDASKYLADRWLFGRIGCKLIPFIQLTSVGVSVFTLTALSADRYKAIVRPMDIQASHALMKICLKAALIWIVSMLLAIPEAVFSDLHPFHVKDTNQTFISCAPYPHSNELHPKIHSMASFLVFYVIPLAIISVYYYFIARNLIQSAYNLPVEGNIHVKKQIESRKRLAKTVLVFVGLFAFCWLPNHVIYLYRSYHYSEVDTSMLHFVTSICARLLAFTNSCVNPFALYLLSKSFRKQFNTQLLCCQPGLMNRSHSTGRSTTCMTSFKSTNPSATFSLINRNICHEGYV

In patent US8957024B2, “Composition and methods for reducing opioid-induced pruritus” (priority 2011, dated 2015):

Molecular target: T1, Myc-GRPR (Mus musculus, UniProt P21729)
T1 construct: expressed in transfected cells
Experiment: Receptor internalization assay (ELISA, immunofluorescence staining) in HEK 293 cells: GRPR
Assay type: cell-based
Conditions: HEK 293 cells expressing GRPR alone; agonist 1 μM, 30 min

Substance: gastrin-releasing peptide [GRP]
- agonist-induced GRPR internalization: induced endocytosis of GRPR
